Patent US8450308B2

Amino acid sequences for entries named in this document (tags omitted). Residues count along the entry.
UniProt P56817, 22-458 limits assumed: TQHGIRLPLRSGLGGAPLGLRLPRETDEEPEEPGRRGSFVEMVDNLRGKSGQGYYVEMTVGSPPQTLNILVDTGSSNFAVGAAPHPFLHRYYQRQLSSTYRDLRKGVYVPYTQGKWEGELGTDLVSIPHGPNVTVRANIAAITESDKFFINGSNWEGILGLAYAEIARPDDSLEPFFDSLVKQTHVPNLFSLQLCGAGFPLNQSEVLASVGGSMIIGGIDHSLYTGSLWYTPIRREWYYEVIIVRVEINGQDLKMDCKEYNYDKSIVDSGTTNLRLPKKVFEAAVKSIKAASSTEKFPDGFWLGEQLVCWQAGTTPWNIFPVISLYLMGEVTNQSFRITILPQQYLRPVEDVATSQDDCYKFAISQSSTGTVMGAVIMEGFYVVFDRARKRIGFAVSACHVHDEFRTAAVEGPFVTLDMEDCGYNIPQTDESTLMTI

Experiments:
[1] = system: H4 neuroglioma cell line that stably expresses Amyloid Precursor Protein (APP) containing the KM-NL Swedish mutation (H4-APPsw); Aβ 1-40; experiment: BACE cell assay: soluble Amyloid Beta 1-40 (Aβ 1-40) in culture media of H4-APPsw cells; settings: in vitro cell activity, secreted Aβ 1-40, overnight treatment, tested form: TFA
[2] = target: truncated human beta-secretase (residues 1-458, His6-tagged at the C-terminus) (Homo sapiens, UniProt P56817); experiment: BACE fluorescence quench assay; type: biochemical; settings: in vitro enzyme activity, pH 4.5

Compound | IC50 [1] [nM] | IC50 [2] [nM]
COc1ccc2c(c1)CCCC1(C2)CC2(N=C(N)N(C)O2)c2cc(-c3cccc(C#N)c3)ccc2O1 (centres unmarked) | 100 to 500 | –
CN1C(=O)C2(CC(c3ccccc3)Oc3ccc(-c4ccncc4)cc32)N=C1N (centres unmarked) [Compound 58, 2′-amino-1′-methyl-2-phenyl-6-(pyridin-4-yl)spiro[chroman-4,4′-imidazol]-5′(1′H)-one] | – | 5000 to 10000
